# Bioassay records from PubChem.
# Nrf2 inh: Nrf2 pathway inhibition; Potency, µM (titrated, usually from 46 µM), for inactives: top-dose activity change, negative = inhibition, usual class: inhibitors; hit rate 2.1% among 360,000; A549 ARE-Fluc reporter, luciferase luminescence, 18-24 h; further: potency means the concentration at half of the fitted maximal effect; on the % scale 0 is the no-effect control and ±100 the full control effect; nearly all actives have a fitted effect of over 60% in size
#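 Nrf2 activity is the BugLite luminescence, read 15 min after reagent at room temperature, following CellTiter-Fluor cytotoxicity readout (30 min, 37C). Compound titrations were applied for 18-24 h to 5000 A549 ARE_Fluc cells/well in 5% FBS OPTI-MEM.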
# miR-21 reporter: raises the signal of a miR-21 reporter | HeLa miR-21 FLuc reporter, luciferase, 48 h | Potency, µM (highest dose often 38.3 µM), for inactives: at the highest dose reporter change, positive = more light | 340,000 tested, under 10 active | AID 2288; active = well fitted rising curve with a large enough effect; inconclusive = small, poorly fitted or top-dose-only effect; inactive = no such curve, though single readings can be large or run the other way;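 also: % of control where 0% means no effect; miR-21 action dims this reporter so a rising signal means less miR-21 action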
#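 Luminescence from a firefly luciferase reporter carrying a miR-21 binding site downstream, stably expressed under a CMV promoter in HeLa cells that make miR-21 endogenously, reports miRNA modulation after 48 h compound exposure up to approximately 40uM final.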
# Nrf2 ARE act: activates Nrf2 signaling. AREc32 ARE-luciferase reporter (MCF7-derived line), luminescence, 24 h. Potency, µM (doses to about 46.1 µM), for inactives: top-dose activation, actives largely listed as activators. hit rate 0.31% among 410,000. AID 624171; further: potency means the concentration at half of the fitted maximal effect; % of control where 0% means no effect; nearly all actives have a fitted effect of over 65% in size
#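 Cells of the AREc32 ARE-luciferase line are plated in OPTI-MEM containing 5% FBS and left overnight at 37 deg C. Compounds are pinned in, incubation continues 24 hr, and firefly luciferase signal is then measured.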
# IL2 activator: IL-2 activation | activation, % (series mostly up to about 46 µM) | hit rate 0.065% among 360,000 | IL-2 activation reporter assay, cell-based qHTS; stimulated with anti-CD3/CD4/CD28 beads; in transgenic mouse T cells | AID 652025; in the data active means activation above about 50%; inconclusive means mostly about 30% to 49%; further: 0% is about no effect
#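 EGFP and DsRed fluorescence is measured by plate cytometry in unstimulated transgenic mouse T cells exposed to compound for 60 minutes, then stimulated 18 hours at 37 degrees C with anti-CD3/anti-CD4 beads plus anti-CD28.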
# A549 tox: kills or reduces viability of A549 cells in Nrf2 counter-screen; A549 ARE-Fluc cells, CellTiter-Fluor viability, 18-24 h; Potency, µM (highest dose often 46 µM), for inactives: at the top dose activity change, negative = cytotoxicity, actives largely listed as inhibitors; hit rate 0.16% among 390,000; further: potency means the concentration at half of the fitted maximal effect; on the % scale 0 is the no-effect control and ±100 the full control effect
#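 Cytotoxicity counterscreen: CellTiter-Fluor fluorescence was measured in A549 ARE_Fluc cells after 18-24 h of compound exposure in a concentration series. The subsequent BugLite luminescent read reports ARE-luciferase activity.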
# ClpP mod: qHTS Assay for Activators of ClpP; ATP-dependent Clp protease proteolytic subunit (Bacillus subtilis (strain 168)), P80244; purified B. subtilis ClpP, FRET peptide cleavage, 20 min; Potency, µM (series often up to 57.5 µM), without a hit: at the top dose activity change, negative = active; hit rate 1.9% among 340,000; active means well fitted falling curve with a large enough effect; inconclusive means small, poorly fitted or top-dose-only effect; inactive means no such curve, though single readings can be large or run the other way; further: potency means the concentration at half of the fitted maximal effect; the source files actives as falling curves though it sought activators and does not explain the sign; nearly all actives have a fitted effect of over 65% in size
#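 ClpP 10 microg/mL final, pH 8 Tris/KCl buffer with BSA, glycerol, Tween-20; compound pinned in; FRET-FV substrate; RT 20 min; Ex320/Em430; ΔFRET vs ADEP 5.8 microM, DMSO, no enzyme.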
# Active calls of the source: *; ? = inconclusive; nt = no result; [ ] = dose if it differs, or a comment. Sampled rows, rich in hits. Any-hit rate of the full collection: about 3.7%. Unless noted, the call rests on the fitted dose curve; in most records, active means well fitted curve in the direction sought with a large enough effect; inconclusive means small, poorly fitted or top-dose-only effect, or another doubt; inactive means no such curve, though single readings can be large; an effect the other way counts as inactive or inconclusive.
SMILES,Nrf2 inh,miR-21 reporter,Nrf2 ARE act,IL2 activator,A549 tox,ClpP mod
CCOC(=O)C1=C(c2ccccc2)NC(SC)=C(C#N)C1c1ccco1 (stereo not drawn),?,7%,21%,-1,-13%[1.84 µM],-2%
C=CCOc1ccccc1CN(C(=O)CCl)c1ccc2c(c1)OCO2,4%,28%,22µM*,-4,2%,nt
CCn1c(=O)c(C(=O)Nc2ccc(C(C)=O)cc2)nc2ccccc21,4%,-31%,-1%,nt,1%,0%
Cc1ccc(S(=O)(=O)N2CCN(c3nc(-n4c(=O)[nH]c5ccccc54)nc4ccccc34)CC2)cc1,nt,nt,nt,nt,nt,-22%
O=C(Nc1nnc(-c2ccco2)s1)c1ccccc1,?,-22%,?,0,-5%[1.84 µM],-5%
CC(C)C(=O)Nc1nnc(-c2ccco2)s1,23%,-35%,10µM*,-4,-7%,-1%
O=C(Nc1nnc(-c2ccco2)s1)C1CC1,2%,-50%,11µM*,-1,-8%,32µM*
CCOC(=O)c1c(C)[nH]c(C)c1S(=O)(=O)N1CCCC(C(=O)Nc2ccc(C)c(N(C)C)c2)C1 (stereo not drawn),17%,2%,1%,nt,-7%,-3%
Cc1c(C(=O)N2CCc3ccccc3C2)oc2ccc(S(=O)(=O)N3CCCCCC3)cc12,15µM*,0%,0%,-5,-4%,-1%
CCOC(=O)C1CCN(C(=O)c2oc3ccc(S(=O)(=O)N4CC(C)CC(C)C4)cc3c2C)CC1 (stereo not drawn),18µM*,10%,0%,-3,?,0%
Cc1c(C(=O)N2CCC(C)CC2)oc2ccc(S(=O)(=O)N3CCC4(CC3)OCCO4)cc12,21µM*,3%,0%,-1,18%,-1%
CCOC(=O)N1CCN(C(=O)c2oc3ccc(S(=O)(=O)N4CC(C)CC(C)C4)cc3c2C)CC1 (stereo not drawn),?,-26%,0%,0,-10%,1%
Cc1c(C(=O)N2CCOCC2)oc2ccc(S(=O)(=O)N3CCCC3)cc12,-13%,-5%,1%,2,-1%,0%
Cc1c(C(=O)O)oc2ccc(S(=O)(=O)N3CCC(C)CC3)cc12,nt,-3%,0%,0,-1%,-2%
COc1ccccc1CNC(=O)CCc1c(C)nn(-c2ccc(N3CCOCC3)nn2)c1C,29%,-7%,1%,nt,3%,-3%
COc1ccccc1N1CCN(Cc2cc(Br)c(O)c3ncccc23)CC1,18µM*,?,1%,-5,-8%,-2%
COc1ccccc1N1CCN(c2nc(C)nc3c2oc2ccccc23)CC1,nt,22%,-1%,2,-5%,32µM*
Cc1nc(N2CCN(C(=O)c3ccco3)CC2)c2oc3ccccc3c2n1,21µM*,24%,0%,-1,-13%,-8%
Cc1ccc(CNC(=O)C2CCCN(c3nnc(-n4c(C)ccc4C)s3)C2)cc1 (stereo not drawn),-5%,6%,?,nt,0%,8%
COc1cc(Nc2ncc3c(n2)CCN(Cc2cc(Br)cs2)C3)cc(OC)c1,nt,0%,6%,nt,-5%,-5%
COc1ccc(C(=O)C[n+]2cc(-c3ccc(OC)cc3)n3c2CCCC3)cc1,8.2µM*,22%,3%,0,-9%,-1%
O=C(c1cccc(C(F)(F)F)c1)N1CCOC12CCN(c1ncc(C(F)(F)F)cc1Cl)CC2,26µM*,-6%,0%,-1,-14%,-6%
COc1ccc(C(=O)NCc2ccc3c(c2)CCN3C(=O)c2ccncc2)cc1,nt,7%,0%,nt,-6%,?
Cc1ccc(NC(=O)N2CCCC2C(=O)NCc2cccs2)cc1 (stereo not drawn),-13%,-2%,0%,3,-1%,-1%

# Results in Nrf2 ARE act, A549 tox and IL2 activator (4 entries from above):
Compound,Nrf2 ARE act,A549 tox,IL2 activator
COc1ccc(C(=O)NCc2ccc3c(c2)CCN3C(=O)c2ccncc2)cc1,0%,-6%,nt
Cc1nc(N2CCN(C(=O)c3ccco3)CC2)c2oc3ccccc3c2n1,0%,-13%,-1
Cc1ccc(NC(=O)N2CCCC2C(=O)NCc2cccs2)cc1 (stereo not drawn),0%,-1%,3
COc1ccccc1N1CCN(Cc2cc(Br)c(O)c3ncccc23)CC1,1%,-8%,-5

# An excerpt from above in order of number of heavy atoms, rising.
SMILES,Nrf2 inh,miR-21 reporter,Nrf2 ARE act,IL2 activator,A549 tox,ClpP mod
COc1cc(Nc2ncc3c(n2)CCN(Cc2cc(Br)cs2)C3)cc(OC)c1,nt,0%,6%,nt,-5%,-5%
Cc1c(C(=O)N2CCc3ccccc3C2)oc2ccc(S(=O)(=O)N3CCCCCC3)cc12,15µM*,0%,0%,-5,-4%,-1%
CCOC(=O)c1c(C)[nH]c(C)c1S(=O)(=O)N1CCCC(C(=O)Nc2ccc(C)c(N(C)C)c2)C1 (stereo not drawn),17%,2%,1%,nt,-7%,-3%
